{"source": "patent US20030138508A1", "about": "(priority 2001, published 2003)", "assay": "flashbar vaporization of THC, HPLC of aerosol", "type": "physicochemical", "settings": "about 1 mg coated, about 400° C. within about 200 milliseconds; cannabinol primary impurity"}
{"molecule": "CCCCCc1cc(O)c2c(c1)OC(C)(C)[C@@H]1CCC(C)=C[C@@H]21", "note": "[THC, Δ^9-Tetrahydrocannabinol]", "values": [{"measurement": "purity of aerosol after vaporization", "value": "approximately 98%"}]}
